Laboratory results taken from US10266806B2, “Stem cell-derived hepatocytes in co-culture and uses thereof” (Colorado State University Research Foundation, priority 2014, dated 2019).

System: CYP1A2
Assay: CYP1A2 induction in iMPCCs (7-ethoxyresorufin O-dealkylation)
Type: cell-based, human

induction of iMPCC CYP1A2 activity (4 days): dose-dependent manner
CYP1A2 fold induction in iMPCCs as % of values in PHH-MPCCs (same dose and duration): ~70%
Substance: β-naphthoflavone
